Reference: PMC9095466 (Nature, 2022)

Tested on: SARS-CoV-2 lineage B strain (VIDO)
Type: cell-based

CC(=O)NC(CCC(N)=O)C(=O)NC(CC1CCCCC1)C(=O)NC(CCCNC(=N)N)C(=O)c1nc2ccccc2s1 (centres unmarked) [Compound N-0676]
Nucleocapsid: 41.1773 and 66.0403
dsRNA: 33.6131 and 60.7909

Where “and” joins values, the source holds several entries; their conditions need not be identical. Equal entries are not always repeated.
